PglD DTNB – C. jejuni PglD acetyltransferase inhibitors, primary screen, biochemical, DTNB colorimetric, single point | UDP-N-acetylbacillosamine N-acetyltransferase PglD (Campylobacter jejuni) | purified PglD enzyme, DTNB colorimetric CoA detection | inhibition, % at 12.5 µM | hit rate 0.098% among 360,000; in the data active means inhibition above about 16%, passing the limit was not always enough
esBAF inh – Bmi1 luciferase reporter increase in mESCs, primary screen, esBAF inhibitor project, mouse ES cells, Bmi1 luciferase knock-in, single point; 24 h; 100% = twice the neutral-well signal; reporter increase, % at 12.5 µM; hit rate 2% among 350,000; AID 602393, 2012; in the data active means activation above about 40%;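 further: 0% = median of the plate's neutral control wells and 100% = double that signal; a rise in the Bmi1 reporter signal indicates esBAF inhibition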
Wnt act – Wnt/beta-catenin pathway activators, primary screen, cell-based, plate reader, single point. activation, % at 9.35 µM. hit rate 1.2% among 300,000. Wnt/beta-catenin reporter cell assay, activator; in the data active means activation above about 30%, passing the limit was not always enough;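 further: 0% = neutral control wells and 100% = positive control wells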
miR-122 sensor – miR-122 Renilla sensor signal increase in Huh7, primary screen, miR-122 inhibitor project, cell-based, single point, plate reader | AID 602342, 2012 | Huh7 miR-122 Renilla luciferase sensor, 48 h; neutral wells = 0, positive control = 100 | activation (reporter increase), % at 12.5 µM | hit rate 0.3% among 340,000;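 active means mean replicate activation score at least 90 and every replicate individually at or above 90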;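 further: higher luciferase means less miR-122 activity so hits act as miR-122 inhibitors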
MITF TRPM1 HTS – activators of MITF-driven TRPM1 promoter reporter, primary screen, cell-based, SK-MEL-5, luciferase, single point; activation, % at 12.5 µM; SK-MEL-5 TRPM1-promoter luciferase, 24 h; % of positive control, neutral wells = 0; hit rate 0.75% among 300,000;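 active means mean activation of at least 80% with every replicate also reaching 80%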;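 further: 0% = neutral control wells and 100% = parthenolide positive control wells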
UUG fidelity – alters start codon recognition fidelity in yeast. S. cerevisiae UUG-firefly luciferase reporter, luminescence/redox ratio. AID 602363. activity score, % at 18.7 µM. hit rate 0.13% among 350,000;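 active = replicate mean at a twofold rise or more, about +100% in these data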;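 note: firefly luciferase made from a UUG start codon reports start codon fidelity; reporter light over untreated wells divided by growth signal over untreated wells; some hits fall short of that in this replicate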
* = called active by the depositor; · = no result given; [ ] = another dose, or the depositor's remark. Only some compounds are listed: those with a hit (about 2.8% of all), similar ones and a draw of the others.

SMILES	PglD DTNB	esBAF inh	Wnt act	miR-122 sensor	MITF TRPM1 HTS	UUG fidelity
Cc1ccc(S(=O)(=O)Nc2ccc3c(c2)C(=O)N([C@H](C)CO)C[C@@H](C)[C@H](CN(C)Cc2ccc4c(c2)OCO4)OCCCC[C@H](C)O3)cc1	1.1	-3.7	·	-11.9[16.7 µM]	·	20.6
COc1ccc(-c2csc(N3CCC(C(N)=O)CC3)n2)cc1	-2.8	50.1*	7.8	-3.1	42.9	-3.6
Cc1ccc(-c2csc(N3CCC(C(N)=O)CC3)n2)cc1	-0.7	27.0	12.3	·	58.7	-10.3
NC(=O)C1CCN(c2nc(-c3cccc(Cl)c3)cs2)CC1	-2.8	48.9*	13.4	0.9	46.0	0.7
CC1CCN(C(=O)c2cc3c(ccc4ccccc43)o2)CC1	16.7	·	33.1*	·	28.6	-51.8
CCOC(=O)C1CCN(C(=O)c2cc3cc(C)ccc3[nH]2)CC1	6.5	19.3	33.7*	0.3	·	-14.3
CCOC(=O)C1CCN(C(=O)c2cc3cc4ccc(C)cc4nc3o2)CC1	0.6	12.3	26.0	·	15.1	-7.2
CC1CCN(C(=O)c2cc3ccccc3c(=O)o2)CC1	7.0	·	14.4	-5.3	-2.8	-10.9
CCOC(=O)C1CCN(C(=O)c2cc3c(ccc4ccccc43)o2)CC1	-2.8	70.8*	41.6*	-3.4	96.2*	-6.3
CC(C)NC(=O)N1[C@H](CO)[C@H]2c3ccccc3N(C(=O)Nc3ccc(Cl)cc3)C[C@H]21	-2.2	10.9	·	28.2[16.7 µM]	·	-9.8

Brought forward from above: two entries, followed by the next part.
SMILES	PglD DTNB	esBAF inh	Wnt act	miR-122 sensor	MITF TRPM1 HTS	UUG fidelity
CCOC(=O)C1CCN(C(=O)c2cc3c(ccc4ccccc43)o2)CC1	-2.8	70.8*	41.6*	-3.4	96.2*	-6.3
CC(C)NC(=O)N1[C@H](CO)[C@H]2c3ccccc3N(C(=O)Nc3ccc(Cl)cc3)C[C@H]21	-2.2	10.9	·	28.2[16.7 µM]	·	-9.8
COc1cccc(NC(=O)C[C@@H]2CC[C@@H]3[C@@H](COc4ccc(NC(=O)C5CCOCC5)cc4C(=O)N3C)O2)c1	-3.3	0.5	·	-26.7[16.7 µM]	·	·
CC1CCc2c(C(=O)Nc3ccccn3)csc2C1 (stereo unspecified)	·	·	52.4*	·	74.8	·
CCSc1nnc(NC(=O)c2csc3c2CCC(C)C3)s1 (stereo unspecified)	5.6	3.7	·	-0.5	23.1	-3.1
CC1CCc2c(C(=O)Nc3nccs3)csc2C1 (stereo unspecified)	-5.4	57.7*	21.2	-4.5	74.8	-24.8
CCCNC(=O)N1C[C@H](O)COC[C@@H]2O[C@@H](CC(=O)N3CCCCC3)CC[C@H]21	1.6	-4.8	·	-1.0[16.7 µM]	·	5.4
C[C@@H]1CCCCO[C@H](CN(C)C(=O)C2CCCCC2)[C@H](C)CN([C@H](C)CO)C(=O)c2cc(NS(=O)(=O)c3cn(C)cn3)ccc2O1	1.1	1.7	·	3.7[16.7 µM]	·	3.3
Cc1ccc(S(=O)(=O)N(C)C[C@H]2OCCCC[C@H](C)Oc3ccc(NS(=O)(=O)c4ccc(Cl)cc4)cc3C(=O)N([C@@H](C)CO)C[C@@H]2C)cc1	2.6	3.2	·	-0.2[16.7 µM]	·	-4.9
COc1cccc(-c2noc(CCC(=O)Nc3cccnc3)n2)c1	4.4	51.6*	·	-5.1	33.7	-15.0
C[C@@H]1CN([C@@H](C)CO)C(=O)c2cc(C#C[C@@H](C)O)cnc2O[C@@H]1CN(C)C(=O)Cc1ccccn1	2.2	6.8	·	-4.8[16.7 µM]	·	-6.9
CCN(CC)c1ccc2cc(C(=O)c3cccs3)c(=O)oc2c1	-4.8	72.3*	0.0	7.7	·	0.1

Entries of single compounds from above.
`Cc1ccc(-c2csc(N3CCC(C(N)=O)CC3)n2)cc1` is listed as PglD DTNB: -0.7; esBAF inh: 27.0; Wnt act: 12.3; miR-122 sensor: ·; MITF TRPM1 HTS: 58.7; UUG fidelity: -10.3
`NC(=O)C1CCN(c2nc(-c3cccc(Cl)c3)cs2)CC1` is listed as PglD DTNB: -2.8; esBAF inh: 48.9*; Wnt act: 13.4; miR-122 sensor: 0.9; MITF TRPM1 HTS: 46.0; UUG fidelity: 0.7

Continuation:
SMILES	PglD DTNB	esBAF inh	Wnt act	miR-122 sensor	MITF TRPM1 HTS	UUG fidelity
CCN(CC)c1ccc2cc(-c3nc4ccccc4[nH]3)c(=O)oc2c1	6.6	-33.9	·	11.6	-79.6	-32.9
CCN(CC)c1ccc2cc(-c3nnc(-c4ccccc4)o3)c(=O)oc2c1	-5.7	46.1*	·	5.4	63.9	-13.8
O=C(Nc1nc(-c2nc3ccccc3s2)cs1)C1CC1	·	29.8	48.7*	-12.6	·	-15.6
COc1ccccc1OCc1csc(NC(=O)c2ccco2)n1	0.0	76.7*	·	3.1	66.8	-11.4
Cc1csc(NC(=O)c2ccco2)n1	0.5	32.5	·	0.0	25.9	-20.5
O=C(Nc1nc(-c2nc3ccccc3s2)cs1)c1ccco1	-3.1	51.6*	-2.6	4.0	·	-5.0
Cc1cc(C)cc(NC(=O)C2CCN(S(C)(=O)=O)CC2)c1	0.1	-1.1	11.1	-1.6	-7.9	-11.4
Cc1cc(C)cc(NC(=O)C2CCN(c3nccs3)CC2)c1	-3.3	-11.7	·	128.2*	0.6	-5.8

High-throughput results: PubChem BioAssay, Broad Institute
